Test results reported in patent US20250228785A1, “MICROCAPSULE, PREPARATION METHOD THEREFOR, AND USE THEREOF IN PREVENTING AND/OR TREATING DAMAGE TO SALIVARY GLANDS CAUSED BY RADIATION THERAPY” (CAPITAL MEDICAL UNIVERSITY, priority 2021, published 2025).

Assay: Serum biochemical detection at 8 weeks after radiotherapy
Settings: SD rats, 8 weeks after submandibular gland irradiation

sodium nitrate
Cl (high dose 40.5 mM in drinking water): 104.16 ± 1.15 mmol/L
Cl (low dose 20.25 mM in drinking water): 104.54 ± 1.23 mmol/L
